## scFv variants of Ab-14 (heavy chain) against a SARS-CoV-2 spike peptide

Values reported by Engelhart et al. 2022, doi:10.1038/s41597-022-01779-4 (FLAb copy).

All variants were tested on one target, the spike HR2 peptide PDVDLGDISGINAS (SARS-CoV-2).

Ab-14 is the parent antibody, in scFv form: VH, then a 15-residue (Gly4Ser)3 linker, then VL. The light chain is unchanged in all variants.
VH: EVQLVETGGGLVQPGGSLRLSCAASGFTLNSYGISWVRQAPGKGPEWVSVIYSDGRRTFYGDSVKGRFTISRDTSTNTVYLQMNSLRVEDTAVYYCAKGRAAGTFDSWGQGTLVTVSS
VL: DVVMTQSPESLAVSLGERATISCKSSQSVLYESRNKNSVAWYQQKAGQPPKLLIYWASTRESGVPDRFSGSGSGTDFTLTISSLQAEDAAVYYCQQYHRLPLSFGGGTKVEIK

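The parent was found by panning a naive human phage display library on the peptide. The library (AAYL49) carries one to three amino acid substitutions per variant, with no insertions or deletions. The scFvs were displayed on barcoded MATa yeast, the peptide on MATalpha yeast. Mating (16 h, 30 °C) was followed by selection of diploids and sequencing of their barcodes. Scores were corrected for input abundance and mapped to Kd with protein pairs of known affinity run in the same pool. Each pool was mated in three replicate cultures.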

Variants are written as CDR1, CDR2 and CDR3 of the heavy chain (limits as in the source). Parent: GFTLNSYGIS, VIYSDGRRTFYGDSVK, GRAAGTFDS.
The read-out is the apparent dissociation constant on a log10 scale (nM): the lower, the stronger.
A pair that was not seen in that replicate is written "ND"; this usually means weak binding, but a binder can also be missed.
Nonspecific signal, from three strains lacking the peptide, appeared in 15% of pairings of library AAYL49, centred on 4.06 (5% of these signals below 2.83); values are not corrected for it. The control count says in how many pairings with the empty strains this scFv gave a signal, with their mean in brackets.
Parent in this assay: reference entry 0.65, copy in this library 4.11 (one replicate of three).

CDR-H1,CDR-H2,CDR-H3,log10 Kd (nM) by replicate,empty controls
GFTLNSYGIS,DIYSDGRRLFYGDSVK,GRAIGTFDS,ND / ND / ND,1 of 9 (3.11)
GFTLNSFGIM,VIYSDGRRTFYGDSVK,HRAAGTFDS,ND / ND / ND,2 of 9 (4.10)
FFTLNSYGIS,VIYSDGRRTIYGDSVK,GRAAGTVDS,ND / ND / ND,1 of 9 (5.11)
GFTLNSYDIS,VIYSDGWRTFYGDSVS,GRAAGTFDS,6.07 / ND / ND,5 of 9 (4.14)
GFTCNSYGIM,VIYSDGRRTVYGDSVK,GRAAGTFDS,ND / 4.08 / 4.37,3 of 9 (5.06)
GFTLNSYGIS,VIYSDGRRTFYGDEVK,GRASGTPDS,1.66 / 1.33 / 1.50,1 of 9 (3.60)
GFTLFSDGIS,VIYSDGRRTFYGDSVK,GRAAGTFPS,ND / 3.59 / ND,0 of 9
GFDLNSYNIS,VIYSDGRRKFYGDSVK,GRAAGTFDS,ND / ND / ND,0 of 9
GFTLNSYGMS,VEYSDGRRTFYGDSVK,GRAAGTFDS,4.70 / 4.08 / ND,8 of 9 (4.60)
GFTLNSYGIP,VVYSDGRRWFYGDSVK,GRAAGTFDS,4.19 / ND / ND,1 of 9 (4.11)
GFTLNSYGIS,VIYPDGRRTFYGNSVK,GRAAGQFDS,ND / ND / ND,0 of 9
GFGLNSYGIW,VIYSDGRRTFYGDSVK,GRAAGTFDS,4.51 / ND / ND,1 of 9 (3.85)
GFTLNSSGIS,YIYSDGRRTFYGRSVK,GRAAGTFDS,ND / ND / ND,2 of 9 (3.97)
GFTLNSYGIC,VIYSDGRRTFYGDSVK,VRAAGTFDQ,3.82 / 3.59 / ND,3 of 9 (3.70)
GGTLNEYGMS,VIYSDGRRTFYGDSVK,GRAAGTFDS,ND / 3.90 / ND,0 of 9
YFTLNSYDIS,VIYSDGRRTFYGDSVK,GRAAGDFDS,ND / 4.55 / 3.92,3 of 9 (4.94)
GFTLNSYVIS,VIYYDGRRPFYGDSVK,GRAAGTFDS,ND / ND / ND,0 of 9
WFTLNSYGIS,VIYSDGRRTFYGDSVD,GRAKGTFDS,ND / ND / ND,3 of 9 (4.74)
GFTLNSYGIS,VIYSDYLRTFYGDSMK,GRAAGTFDS,ND / ND / ND,1 of 9 (3.75)
GFTLNAYGIS,VIYSDGRRWFYGDSVK,GRAAGTFDQ,ND / 3.63 / ND,2 of 9 (3.25)
GFTLNSYGIS,VIYSDGRRTFYGDHVK,MRAAGTFCS,4.03 / 3.15 / 6.42,8 of 9 (4.49)
GFTLNSYGIS,VIYSDGTRTFTGDYVK,GRAAGTFDS,ND / ND / ND,2 of 9 (3.24)
GFTSNSYGIS,VIYSDGRRTFYGDSVK,GNAAGHFDS,ND / ND / ND,0 of 9
GFTLNHAGIC,VIYSDGRRTFYGDSVK,GRAAGTFDS,ND / ND / ND,0 of 9
GFTLNSYLIS,VIYSDGRRTFYNDSVK,GKAAGTFDS,ND / ND / ND,1 of 9 (3.47)
GFTLNSYGIS,VIYSDGRRTFYGSDVK,GRAMGTFDS,2.53 / 2.55 / 2.72,3 of 9 (4.24)
GFTLNSFGIS,MIGSDGRRTFYGDSVK,GRAAGTFDS,4.58 / 5.94 / 4.21,6 of 9 (5.12)
GFTLNSYGIS,VTYSDGRRTFYQMSVK,GRAAGTFDS,ND / ND / ND,0 of 9
GFTLNSYGIS,VIYSDGRRPFYGDSVK,GRAAGTFGS,2.85 / 4.01 / ND,2 of 9 (2.96)
GFTFNSEGIS,VIYSDGRRTFYGDSVK,GRAAGTFDS,ND / ND / ND,2 of 9 (4.33)
GFTLNSYGCS,VIYSDGRRTFYQDSVK,GRAADTFDS,ND / ND / 3.49,0 of 9
NFTLNFYGIS,VIYSDGRRTFYGDSVK,GRAAGTFDS,ND / 4.16 / 5.67,3 of 9 (3.84)

Excerpt, the final 2 entries:

CDR-H1	CDR-H2	CDR-H3	log10 Kd (nM) by replicate	empty controls
GFTLNSYGCS	VIYSDGRRTFYQDSVK	GRAADTFDS	ND / ND / 3.49	0 of 9
NFTLNFYGIS	VIYSDGRRTFYGDSVK	GRAAGTFDS	ND / 4.16 / 5.67	3 of 9 (3.84)